Reference: patent US20230000808A1, “COMPOSITIONS AND METHODS EXCLUDING OR WITH REDUCED GLUTAMINE FOR THE TREATMENT OF HEMOGLOBINOPATHIES AND THALASSEMIAS” (AXCELLA HEALTH INC., priority 2019, published 2023)

Columns and labels:
HLMVEC = assay: META-rank score, composite of VCAM1, ICAM1 and IL6 in the HLMVEC model; type: cell-based, human; details: HLMVEC + TNF-α; lower score = more optimal; 20x HMDB / 5 mM
Protocol: Summary of results: As described, an ideal treatment is one that addresses the multifactorial pathology of SCD as represented by HLMVEC by reducing disease phenotypes (VCAM1, ICAM1, IL6). The ability of single amino acids and combinations to simultaneously impact these phenotypes was measured by a META-rank score (Tables 17 and 18). META-rank score is a composite measure that considers the optimal impact on all 3 phenotypes (e.g. decrease VCAM1, ICAM1, and IL6) in the HLMVEC model.

[1] = tested on: RBCs of healthy whole blood; assay: RBC deformability (Elongation Index, LORRCA ektacytometry), ex vivo TBHP oxidation of healthy whole blood; type: cell-based, human; details: healthy donor 2
Source text: Whole blood from healthy African American and/or Hispanic donors was obtained from Research Blood Components, LLC based on the following donor selection criteria: Adult age (between 18 and 50 years), normal BMI (<30), and absence of other confounding clinical conditions. Whole blood from SCD donors were obtained from BioIVT based on the following donor selection criteria: Patients with genotypes HbSS, HbSC, HbS/β^0 and at least 1-2 months gap since last blood transfusion. Whole blood was shipped on ice on the same day as blood draw. Upon receipt, the blood sample was aliquoted and stored in the refrigerator until used for studies.
RBC deformability measurements were conducted with the Laser Optical Rotational Red Cell Analyzer (LORRCA) from RR Mechatronics in a temperature-controlled environment (37° C.). Briefly, an even layer of RBCs suspended in polyvinylpyrrolidone (PVP) is subjected to shear stress gradient (0.3 to 30 Pa) through two concentric cylinders and the resulting changes in RBC shape or deformability are measured by a laser beam diffraction pattern. The captured images of RBC shape in response to increasing shear stress are then analyzed by the LORRCA program to calculate Elongation Index (EI).
Healthy RBCs have higher deformability ≥0.5 EI and SCD RBCs have lower deformability or EI values as studied by LORRCA ektacytometry in the field. […] The induced hemolysis model in this disclosure involves use of tert-butyl hydroperoxide (TBHP) to lower EI of RBCs.
The ex vivo hemolysis study disclosed here involves overnight treatment of whole blood with vehicle as a control and specific amino acids followed by rapid oxidation (5 min) with TBHP. Method for oxidation of whole blood with tert-butyl hydroperoxide has been used in prior literature (Diederich L, et al, Front Physiol. 2018 May 11; 9:332). RBC deformability or shape changes are then measured with LORRCA ektacytometry.
Whole blood aliquots stored in the fridge were brought up to room temperature while gently shaking on a rocker at low speed for an hour to ensure gradual and uniform suspension of red blood cells prior to deformability measurements. Vehicle control used in the study was 1× Dulbecco's […]) and amino acids disclosed herein were added (at either final 10× or 2.5 mM concentration as indicated) to corresponding vehicle and amino acid treatment conditions. The samples were then incubated overnight at 37° C. The next day, 25 μl of whole blood was taken from each treatment condition and added to 5 mL Elon ISO viscous solution from RR Mechatronics. The sample was inverted 15-20 times to ensure proper mixing of the treated RBCs with the Elon ISO solution followed by loading the sample on LORRCA and capturing RBC deformability or shape measurements over the applied shear gradient. The remaining whole blood treatments were returned to incubator (37° C.) until deformability measurements were completed for all treatments. To the remaining whole blood treatment samples, TBHP solution (5.0-6.0 M in Decane, Sigma) was added at 2.5 mM final concentration from a 100 mM freshly prepared stock and incubated for further 5 min at 37° C. 25 μl of this TBHP-treated sample was immediately removed at the end of the 5 min incubation and added to the Elon ISO solution for RBC deformability measurement after oxidation. Included in the Tables 13-15 are EI measurements at ½ EImax shear stress 1.69 Pa and EImax shear stress 30 Pa from these studies and FIG. 1 captures EI measurements for all shear stress points for the indicated treatment conditions.

[2] = 10X amino acids/2.5 mM Nac, Cit, Car + 2.5 mM TBHP
[3] = + 2.5 mM TBHP, 10X amino acids/2.5 mM Nac, Cit, Car

Compound | Meta-Rank (Table 18) (HLMVEC) | EI Fold Change Relative to Vehicle EImax (30 Pa) [1, 2] | EI Fold Change Relative to Vehicle ½ EImax (1.69 Pa) [1, 2] | Elongation Index (EI) EImax (30 Pa) [1, 2] | Elongation Index (EI) ½ EImax (1.69 Pa) [1, 2] | EI Fold Change Relative to Vehicle EImax (30 Pa) ([1]; + 2.5 mM TBHP) | EI Fold Change Relative to Vehicle ½ EImax (1.69 Pa) ([1]; + 2.5 mM TBHP) | Elongation Index (EI) EImax (30 Pa) [1, 3] | Elongation Index (EI) ½ EImax (1.69 Pa) [1, 3]
N=C(N)NCCC[C@H](N)C(=O)O [Arg] | 12.5 | – | – | – | – | – | – | – | –
N=C(N)NCCC[C@H](N)C(=O)O [Arginine] | – | 1.00 | 1.02 | 0.308 | 0.087 | 2.14 fold | 1.35 fold | 0.251 | 0.057
